Key:
[1] = biological target: 11b-HSD1 (Homo sapiens, UniProt P28845); experiment: Enzymatic assay, 11b-HSD1 reductase activity (conversion of cortisone into cortisol); conditions: pIC50 scored 1-3
[2] = biological target: T1, 11b-HSD2 (Homo sapiens, UniProt P80365); experiment: Enzymatic assay, 11b-HSD2 dependent dehydrogenase activity; conditions: 11b-HSD2 dehydrogenase activity, pIC50 scored 1-3
[3] = biological target: 11b-HSD1 (Mus musculus, UniProt P50172); experiment: Cellular assay, 11b-HSD1 activity in differentiated 3T3-L1 cells; conditions: 4 hour pre-incubation, pIC50 scored 1-3
[4] = biological target: T1, 11b-HSD2; experiment: Cellular assay, 11b-HSD2 activity in HepG2 cells; conditions: 4 hour pre-incubation, pIC50 scored 1-3

The chains behind the UniProt entries cited, without tags or fusion partners.
UniProt P28845, whole entry: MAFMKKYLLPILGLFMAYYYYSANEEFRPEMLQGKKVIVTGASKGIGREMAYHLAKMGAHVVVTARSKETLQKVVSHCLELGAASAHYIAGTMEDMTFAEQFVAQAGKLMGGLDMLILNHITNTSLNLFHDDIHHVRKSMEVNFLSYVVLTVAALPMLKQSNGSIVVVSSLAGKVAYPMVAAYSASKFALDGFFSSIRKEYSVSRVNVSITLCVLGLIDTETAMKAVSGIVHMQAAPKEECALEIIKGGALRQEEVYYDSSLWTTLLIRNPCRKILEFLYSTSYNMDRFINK
UniProt P80365, whole entry: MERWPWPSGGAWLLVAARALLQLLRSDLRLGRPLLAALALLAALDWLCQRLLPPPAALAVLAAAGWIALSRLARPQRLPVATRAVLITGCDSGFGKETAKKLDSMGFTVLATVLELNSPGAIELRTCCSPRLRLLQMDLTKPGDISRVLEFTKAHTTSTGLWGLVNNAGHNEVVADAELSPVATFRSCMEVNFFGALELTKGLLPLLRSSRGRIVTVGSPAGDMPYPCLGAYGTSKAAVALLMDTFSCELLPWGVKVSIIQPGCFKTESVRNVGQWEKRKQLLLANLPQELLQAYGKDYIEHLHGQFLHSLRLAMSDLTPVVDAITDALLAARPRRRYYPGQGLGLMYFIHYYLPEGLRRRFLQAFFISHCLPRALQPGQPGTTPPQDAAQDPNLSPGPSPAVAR
UniProt P50172, whole entry: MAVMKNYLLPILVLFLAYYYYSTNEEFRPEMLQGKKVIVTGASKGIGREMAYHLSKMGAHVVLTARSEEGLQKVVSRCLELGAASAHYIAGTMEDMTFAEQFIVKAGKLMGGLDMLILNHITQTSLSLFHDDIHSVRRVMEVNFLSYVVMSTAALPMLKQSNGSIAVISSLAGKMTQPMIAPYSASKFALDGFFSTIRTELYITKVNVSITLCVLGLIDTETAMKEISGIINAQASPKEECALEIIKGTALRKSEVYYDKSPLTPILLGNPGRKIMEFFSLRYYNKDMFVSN

CC(C(=O)NC1C2CC3CC(C2)CC1C3)c1ccc([N+](=O)[O-])cc1 (stereo not shown)
[C1] HSD1-prot Reduct Score [1]: 2 (Score 2=pIC50 value in the range of 5 to 6)
[C1] HSD2 prot Dehydro Score [2]: 1 (Score 1=pIC50 value<5)
[C2] HSD1 cellular 3T3-L1 Score [3]: 2 (Score 2=pIC50 value in the range of 5 to 6)
[C2] HSD2 cellular HepG2 Score [4]: 1 (Score 1=pIC50 value<5)
